Among the data in PubChem BioAssay AID652128 (Broad Institute, 2013) are outcome values, retold here.

The entries are a selection whose mix differs from that of the whole data set. Records with an inconclusive call do not appear. Active and inactive are the calls of the source.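 The calls were made as follows: active = fitted half-maximal concentration for signal loss at or below twice the highest dose tested, in every separate run (actives reach about 64 µM in these data); inconclusive = runs disagree, or flat partial signal loss, or poor fit; inactive = the rest.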

A short description of the test: DNA binders displacing acridine orange – biochemical, fluorescence polarization, cherry-pick, artefact control for RAD52 inhibitor project, dose response (AID 652128). The settings on record: Salmon sperm DNA/acridine orange FP displacement, DNA binding.

Take `CN(CCCl)Cc1cc(Cl)c(NC2=NCCN2)c(Cl)c1`: the compound was classed as inactive.
